Laboratory results taken from ChEMBL document CHEMBL5579862, “Development of Novel Bacterial Topoisomerase Inhibitors Assisted by Computational Screening” (ACS Med Chem Lett, 2024).

System: Staphylococcus aureus
Assay: Selectivity ratio of IC50 for Staphylococcus aureus topoisomerase-IV to IC50 for Staphylococcus aureus DNA gyrase

For `COc1ccc2ncc(F)c(CCN3CCC(NCc4ccc(C)cc4)CC3)c2n1`, the Ratio IC50 was 177.
